{
  "source": "patent US11458170B2",
  "about": "“Pharmaceutical composition comprising erythrocytes encapsulating a PLP-dependent enzyme and, a non-phosphate PLP precursor” (ERYTECH PHARMA, priority 2014, dated 2022)",
  "origin": "cited, not measured here",
  "note": "Like-named read-outs stand apart in the source and are kept apart here.",
  "data": [
    {"substance": "Tyrosine Phenol-Lyase [TPL]", "values": [
      {"measurement": "Share of the potential activity actually measured in the plasma", "setting": "5 h after injection, no PLP administered", "value": 7, "unit": "%"},
      {"measurement": "Share of the potential activity actually measured in the plasma", "setting": "PLP intramuscular implant of spermaceti and groundnut oil", "value": "≤ 25", "unit": "%"}
    ]}
  ]
}
